The results in this text go back to patent US8940728B2 (priority 2012, dated 2015).

By UniProt entry, the sequences of proteins in these tests, tags left out. Residues count along the entry.
UniProt P30926, 22-498: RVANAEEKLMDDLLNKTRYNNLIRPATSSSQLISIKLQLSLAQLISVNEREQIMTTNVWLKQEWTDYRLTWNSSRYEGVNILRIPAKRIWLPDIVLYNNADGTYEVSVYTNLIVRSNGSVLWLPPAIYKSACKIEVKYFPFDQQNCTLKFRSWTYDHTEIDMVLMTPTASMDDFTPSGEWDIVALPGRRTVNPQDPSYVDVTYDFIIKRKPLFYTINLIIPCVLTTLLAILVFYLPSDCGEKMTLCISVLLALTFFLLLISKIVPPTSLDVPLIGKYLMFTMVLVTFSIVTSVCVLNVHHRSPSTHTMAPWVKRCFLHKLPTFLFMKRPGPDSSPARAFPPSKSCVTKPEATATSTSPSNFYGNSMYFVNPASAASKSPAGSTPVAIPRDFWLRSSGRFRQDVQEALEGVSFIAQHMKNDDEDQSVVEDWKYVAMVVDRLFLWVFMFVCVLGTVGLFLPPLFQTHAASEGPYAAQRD
UniProt P32297, 32-505: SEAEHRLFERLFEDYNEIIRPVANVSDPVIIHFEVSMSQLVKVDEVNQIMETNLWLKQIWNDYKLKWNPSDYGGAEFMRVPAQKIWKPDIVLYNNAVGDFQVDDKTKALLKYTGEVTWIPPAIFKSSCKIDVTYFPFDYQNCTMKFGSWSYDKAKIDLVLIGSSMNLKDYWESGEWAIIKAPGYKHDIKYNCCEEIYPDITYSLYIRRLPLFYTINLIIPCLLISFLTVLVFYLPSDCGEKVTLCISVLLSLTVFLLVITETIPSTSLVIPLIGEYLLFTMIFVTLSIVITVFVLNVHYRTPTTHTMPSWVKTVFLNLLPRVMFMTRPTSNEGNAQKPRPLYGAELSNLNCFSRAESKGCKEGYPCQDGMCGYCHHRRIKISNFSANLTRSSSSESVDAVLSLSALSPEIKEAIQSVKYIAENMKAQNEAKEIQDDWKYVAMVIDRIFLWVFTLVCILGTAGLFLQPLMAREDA

Assay [1] concerns the target T1, a3b4 nAChRs (Homo sapiens, UniProt P30926+P32297). In words: FLIPR Ca+2 flux assay, epibatidine-induced calcium response, SH-SYSY cells. The class given is cell-based. On the procedure:
(§1) The HEK293 (a3b4, a4b2 and a7) and SH-SYSY cell lines (a3b4) expressing nAChRs are used. Validated assays optimized with respect to sensitivity, dynamic range, signal intensity and stability for chemical probe validation and SAR refinement are used.
(§2) Nicotinic functional assays are performed using the Molecular Devices FLIPR® Calcium 5 Assay Kit. HEK293 cells overexpressing α3β4, α4β2 or α7 (50,000 cells per well in 100 μl growth media) and are plated in clear bottom black walled 96-well microplates and incubated for 24-48 hours at 37° C., 5% CO2 until a 80-90% confluent monolayer is formed. On the day of the assay, 100 μl of Calcium 5 Dye is added to each well. Following addition of dye, cells are incubated at 25° C. for 60 minutes. Following dye loading, 50 μl of a 5× solution of reference or test compound of appropriate concentration range (0.01-30 μM), prepared in 20 mM HEPES pH 7.4 in HBSS, is added to each well. Plates are then transferred to the Molecular Devices Flexstation® which transfers 50 μL of a 5× solution (500 nM) of epibatine to each well to initiate the Ca+2 flux. […] The RFU (relative fluorescence units) in the presence of the test or reference compounds is then expressed on the percent scale. The percent inhibition of epibatidine induced Ca^+2 flux is calculated as follows: % inhibition=100%−% RFU (relative fluorescence units). […]

Assay [2] addresses T1, a3b4 nAChRs. Nature of the assay: FLIPR Ca+2 flux assay, epibatidine-induced calcium response, A3B4-HEK cells. The class given is cell-based. On the procedure:
as §1, §2

Assay [3] has as its target T2, α3β4 nicotinic receptor subtype (Homo sapiens, UniProt P30926+P32297).
T2 construct: SH-SYSY cells predominantly express the α3β4 nicotinic receptor subtype; endogenous in cells; host or cells: SH-SYSY (SH-SY5Y) cells
Nature of the assay: cell-based. The settings on record: IC50 (uM) Caliper, inhibition of epibatidine-induced calcium response.
Excerpt: as §1

Each structure is given as a SMILES string.

`CNC1(C)C2CCC(C2)C1(C)C` (stereo not drawn) [Mecamylamine]: the IC50 (in general, the point on the concentration scale where inhibition reaches its midpoint) at a3b4 nAChRs [1] turned out to be 400 nM; on a3b4 nAChRs [2] it was 1600 nM; in assay [3], 0.3 µM.
